# Test results reported in US12673951B2, “Substituted pyrazoloquinazolinone compounds and application thereof” (IMPACT THERAPEUTICS (SHANGHAI), INC, priority 2019, dated 2026).
# Protein sequences, listed by entry. Tags and fused reporters are not part of them. Lines headed by an entry give the natural chain unless they say otherwise; changes in a name come on top.
# UniProt Q13315: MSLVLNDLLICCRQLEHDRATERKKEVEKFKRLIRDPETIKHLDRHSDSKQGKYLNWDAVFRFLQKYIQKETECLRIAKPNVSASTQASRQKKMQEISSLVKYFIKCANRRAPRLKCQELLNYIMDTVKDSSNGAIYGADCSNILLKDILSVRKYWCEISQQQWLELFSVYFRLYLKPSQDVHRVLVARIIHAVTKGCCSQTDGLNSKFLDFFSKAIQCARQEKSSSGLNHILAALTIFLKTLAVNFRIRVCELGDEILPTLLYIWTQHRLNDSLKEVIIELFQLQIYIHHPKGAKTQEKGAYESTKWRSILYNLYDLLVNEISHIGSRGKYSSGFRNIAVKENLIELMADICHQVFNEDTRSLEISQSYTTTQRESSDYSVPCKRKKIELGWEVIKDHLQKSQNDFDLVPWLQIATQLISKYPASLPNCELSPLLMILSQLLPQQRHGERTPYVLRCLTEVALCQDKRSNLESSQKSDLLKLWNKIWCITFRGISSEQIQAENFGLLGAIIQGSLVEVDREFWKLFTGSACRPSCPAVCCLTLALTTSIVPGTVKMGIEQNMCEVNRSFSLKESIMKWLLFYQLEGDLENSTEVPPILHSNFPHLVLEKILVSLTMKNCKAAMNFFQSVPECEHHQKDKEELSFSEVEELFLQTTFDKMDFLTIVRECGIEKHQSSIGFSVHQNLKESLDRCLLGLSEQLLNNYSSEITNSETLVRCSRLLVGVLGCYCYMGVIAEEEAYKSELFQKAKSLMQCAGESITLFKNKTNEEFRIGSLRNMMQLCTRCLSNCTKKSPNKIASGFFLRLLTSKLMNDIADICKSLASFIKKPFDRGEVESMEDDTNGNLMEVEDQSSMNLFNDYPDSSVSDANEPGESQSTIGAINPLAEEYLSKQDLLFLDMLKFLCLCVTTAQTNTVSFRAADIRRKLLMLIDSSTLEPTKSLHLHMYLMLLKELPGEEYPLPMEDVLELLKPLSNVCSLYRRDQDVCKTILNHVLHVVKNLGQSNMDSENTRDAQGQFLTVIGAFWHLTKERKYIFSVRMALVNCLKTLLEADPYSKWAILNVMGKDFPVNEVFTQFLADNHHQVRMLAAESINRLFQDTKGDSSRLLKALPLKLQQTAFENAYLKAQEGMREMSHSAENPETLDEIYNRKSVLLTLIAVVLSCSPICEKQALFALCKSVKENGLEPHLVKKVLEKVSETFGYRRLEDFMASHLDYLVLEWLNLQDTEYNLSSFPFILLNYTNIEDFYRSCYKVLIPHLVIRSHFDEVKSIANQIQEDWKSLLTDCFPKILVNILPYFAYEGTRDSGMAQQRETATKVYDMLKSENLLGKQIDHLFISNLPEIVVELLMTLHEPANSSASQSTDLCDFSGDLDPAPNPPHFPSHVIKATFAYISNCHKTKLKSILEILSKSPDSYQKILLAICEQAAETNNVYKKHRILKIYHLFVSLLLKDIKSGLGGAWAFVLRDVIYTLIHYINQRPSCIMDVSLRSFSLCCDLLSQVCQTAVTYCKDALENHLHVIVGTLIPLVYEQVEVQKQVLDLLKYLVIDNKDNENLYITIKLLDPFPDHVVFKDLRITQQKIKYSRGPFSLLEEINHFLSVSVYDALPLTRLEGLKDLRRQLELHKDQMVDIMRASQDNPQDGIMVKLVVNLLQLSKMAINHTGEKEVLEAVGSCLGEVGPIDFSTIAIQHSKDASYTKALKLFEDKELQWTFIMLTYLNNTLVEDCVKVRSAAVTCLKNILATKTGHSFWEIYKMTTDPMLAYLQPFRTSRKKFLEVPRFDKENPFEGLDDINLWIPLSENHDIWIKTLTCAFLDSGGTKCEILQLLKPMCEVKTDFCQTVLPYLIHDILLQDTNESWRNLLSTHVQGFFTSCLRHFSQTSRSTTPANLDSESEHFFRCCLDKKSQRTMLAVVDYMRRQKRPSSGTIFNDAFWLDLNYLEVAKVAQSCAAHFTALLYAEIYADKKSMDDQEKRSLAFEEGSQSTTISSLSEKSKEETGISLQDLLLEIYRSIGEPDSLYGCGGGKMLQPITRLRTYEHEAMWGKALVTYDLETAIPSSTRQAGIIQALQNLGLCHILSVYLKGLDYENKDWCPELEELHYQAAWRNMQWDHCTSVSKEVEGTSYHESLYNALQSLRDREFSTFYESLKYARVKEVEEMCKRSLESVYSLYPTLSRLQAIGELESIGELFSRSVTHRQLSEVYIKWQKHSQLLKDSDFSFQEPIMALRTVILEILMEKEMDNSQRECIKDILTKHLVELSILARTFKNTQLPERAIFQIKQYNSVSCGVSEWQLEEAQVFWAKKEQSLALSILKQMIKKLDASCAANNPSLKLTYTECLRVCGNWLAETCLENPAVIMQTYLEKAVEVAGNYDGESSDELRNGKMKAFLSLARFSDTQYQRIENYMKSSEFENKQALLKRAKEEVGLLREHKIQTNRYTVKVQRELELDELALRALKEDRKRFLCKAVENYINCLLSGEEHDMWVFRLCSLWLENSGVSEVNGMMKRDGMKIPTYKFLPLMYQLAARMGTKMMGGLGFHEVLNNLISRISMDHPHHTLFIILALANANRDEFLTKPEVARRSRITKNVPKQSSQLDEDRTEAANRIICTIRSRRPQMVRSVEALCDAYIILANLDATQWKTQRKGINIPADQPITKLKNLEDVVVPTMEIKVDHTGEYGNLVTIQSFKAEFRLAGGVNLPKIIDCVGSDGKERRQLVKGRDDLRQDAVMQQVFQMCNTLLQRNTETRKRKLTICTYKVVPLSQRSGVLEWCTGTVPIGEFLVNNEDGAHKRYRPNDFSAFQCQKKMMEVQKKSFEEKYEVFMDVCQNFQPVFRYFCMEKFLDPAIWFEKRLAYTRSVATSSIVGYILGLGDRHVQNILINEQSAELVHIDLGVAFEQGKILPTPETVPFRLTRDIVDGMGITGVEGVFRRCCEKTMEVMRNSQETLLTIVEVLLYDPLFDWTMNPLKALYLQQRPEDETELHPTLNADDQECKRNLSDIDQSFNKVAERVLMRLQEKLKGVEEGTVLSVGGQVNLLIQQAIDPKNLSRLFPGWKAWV
# Biological target: T1, ATM enzyme (Homo sapiens, UniProt Q13315)
# T1 construct: purchased Eurofins 14-933
# Assay: ATM kinase assay (HTRF)
# Format: biochemical
# Conditions: 0.5 h, read-out: Inh (%) ATM kinase inhibition rate
# Experimental: The mixture was centrifuged at 1000 rpm for 1 minute, and reacted at room temperature away from light for 30 minutes. Then 5 μL of EDTA stop solution (250 mM) was added to stop the reaction. After 5 μL of detection mixture (Anti-phospho-p53 (ser15)-K (Cisbio, #61P08KAE, 0.084 ng/μL) and Anti-GST-d2 (Cisbio, #61GSTDLA, 5.00 ng/μL)) was finally added to each well, then incubate the plate overnight at room temperature.
# Relative fluorescence ratio was calculated: Ratio665 nm/615 nm-Ratiobackground, and inhibition rate %=(1−(relative fluorescence ratio of test compound well−relative fluorescence ratio of positive control well)/(relative fluorescence ratio of negative control well−relative fluorescence ratio of positive control well))×100 was calculated. Data were analyzed using GraphPad Prism6.0, and fitted using the curve equation: Y=Bottom+(Top−Bottom)/(1+10^((Log IC50−X)×HillSlope)) and IC50 values were calculated.
Compound,inhibition at 0.1 µM [%],inhibition at 1 µM [%],inhibition at 10 µM [%]
"CC(C)c1c(=O)n(C)n2cnc3ccc(-c4ccc(OCCCN(C)C)nc4)cc3c12 [Example 19, 9-(6-(3-(dimethylamino)propoxy)pyridin-3-yl)-1-isopropyl-3-methylpyrazolo[1,5-c]quinazolin-2(3H)-one]",74,95,100
"CC(C)c1c(=O)n(C)n2cnc3ccc(-c4ccc(OCCCN5CCCCC5)nc4)cc3c12 [Example 20, 9-(6-(3-(piperidin-1-yl)propoxy)pyridin-3-yl)-1-isopropyl-3-methyl-pyrazolo[1,5-c]quinazolin-2(3H)-one]",71,97,98
"CC(C)c1c(=O)n(C)n2cnc3ccc(-c4ccc(OCCCN(C)C)c(F)c4)cc3c12 [Example 24, 9-(4-(3-(dimethylamino)propoxy)-3-fluorophenyl)-1-isopropyl-3-methylpyrazolo[1,5-c]quinazolin-2(3H)-one]",–,–,98
"CC(C)c1c(=O)n(C)n2cnc3ccc(-c4ccc(OCCCN(C)C)c(C(F)(F)F)c4)cc3c12 [Example 25, 9-(4-(3-(dimethylamino)propoxy)-3-(trifluoromethyl)phenyl)-1-isopropyl-3-methylpyrazolo[1,5-c]quinazolin-2(3H)-one]",35,98,100

# More lines, now with the values ahead:
inhibition at 0.1 µM [%],inhibition at 1 µM [%],inhibition at 10 µM [%],Compound
60,97,100,"CC(C)c1c(=O)n(C)n2cnc3ccc(-c4ccc(N5CCC(N(C)C)CC5)c(F)c4)cc3c12 [Example 21, 9-(4-(4-(dimethylamino)piperidin-1-yl)-3-fluorophenyl)-1-isopropyl-3-methylpyrazolo[1,5-c]quinazolin-2(3H)-one]"
51,93,99,"CC(C)c1c(=O)n(C)n2cnc3ccc(-c4ccc(N5CCC(N(C)C)CC5)c(Cl)c4)cc3c12 [Example 22, 9-(3-chloro-4-(4-(dimethylamino)piperidin-1-yl)phenyl)-1-isopropyl-3-methylpyrazolo[1,5-c]quinazolin-2(3H)-one]"
26,95,100,"CC(C)c1c(=O)n(C)n2cnc3ccc(-c4ccc(N5CCC(N(C)C)CC5)c(C(F)(F)F)c4)cc3c12 [Example 23, 9-(4-(4-(dimethylamino)piperidin-1-yl)-3-(trifluoromethyl)phenyl)-1-isopropyl-3-methylpyrazolo[1,5-c]quinazolin-2(3H)-one]"
